The list shows a part of the results, in another mix than the full data. Calls of active or inactive are those of the source. No stated cut-off is given here; in the data, active means inhibition above about 50% (passing the limit was not always enough); inconclusive means no clear call, values can overlap the other calls; inactive means below about 31%.
assay: HIV Vif self-association inhibitors, primary screen, imaging, HEK293T, single point (AID 602346); conditions: HEK293T cells, Vif self-association by quenched fluorescence, 24 h, at 7.49 µM, stronger effect = higher value

Compound | inhibition
CC1=NCCc2c1[nH]c1ccccc21.O=[N+]([O-])c1cc([N+](=O)[O-])c(O)c([N+](=O)[O-])c1 | inactive: -4.21%
O=C(O)c1cccc(Nc2c([N+](=O)[O-])cc([N+](=O)[O-])cc2[N+](=O)[O-])c1 | inactive: 4.66%
Cc1ccc(C)c(NP(C)(=O)Oc2ccccc2)c1 (configuration not stated) | inactive: -8.73%
Cc1cc(C)cc(OP(C)(=O)Nc2ccccn2)c1 (configuration not stated) | inactive: -6%
CP(=O)(Nc1cccc(Br)c1)Oc1ccccc1 (configuration not stated) | inactive: 2.63%
COc1ccccc1OP(C)(=O)Nc1cccc(Br)c1 (configuration not stated) | inactive: -0.885%
CCOC(=O)c1ccc(NP(C)(=O)Oc2cc(C)cc(C)c2)cc1 (configuration not stated) | inactive: -5.9%
Cc1cc(C)cc(OP(C)(=O)Nc2ccc(C)cc2C)c1 (configuration not stated) | inactive: -4.6%
O=[N+]([O-])c1cc([N+](=O)[O-])c(-c2cnn(-c3ccccc3)c2)c([N+](=O)[O-])c1 | inactive: -16.5%
Cc1nc2ccc3ccccc3c2s1.O=[N+]([O-])c1cc([N+](=O)[O-])c(O)c([N+](=O)[O-])c1 | inactive: 3.18%
O=[N+]([O-])c1cc([N+](=O)[O-])c(-n2nnc3ccccc32)c([N+](=O)[O-])c1 | inactive: -7.98%
COc1ccccc1OP(C)(=O)Nc1c(C)cccc1C (configuration not stated) | inactive: -2.99%
CN1CCCCC1COC(=O)C1(O)c2ccccc2CCc2ccccc21 (configuration not stated) | inactive: -12.6%
CCCOc1ccc(NP(C)(=O)Oc2ccc(Cl)cc2)cc1 (configuration not stated) | inactive: -3.57%
CC1=C2N=C(C=C3N=C(C(C)=C4[N-][C@@](C)([C@@H]5N=C1[C@](C)(CCC(=O)NC[C@@H](C)OP(=O)([O-])O[C@H]1[C@@H](O)[C@@H](n6cnc7cc(C)c(C)cc76)O[C@@H]1CO)[C@H]5CC(N)=O)[C@@](C)(CC(N)=O)[C@@H]4CCC(N)=O)[C@@](C)(CC(N)=O)[C@@H]3CCC(N)=O)C(C)(C)[C@@H]2CCC(N)=O.[C-]#N.[Co+3] | inactive: -4.57%
O=[N+]([O-])c1cc([N+](=O)[O-])c(Nc2nnnn2CCO)c([N+](=O)[O-])c1 | inactive: -3.01%
CCOC(=O)C(CC)C1=NC(C)(C)Cc2ccccc21.O=[N+]([O-])c1cc([N+](=O)[O-])c(O)c([N+](=O)[O-])c1 (configuration not stated) | inactive: 2.35%
CP(=S)(Nn1cnnc1)Oc1ccccc1 (configuration not stated) | inactive: 8.41%
CP(=O)(Nc1ccccc1Br)Oc1ccccc1 (configuration not stated) | inactive: 3.8%

Compound | inhibition
COc1ccccc1OP(C)(=O)Nc1ccccc1 (configuration not stated) | inactive: 9.31%
CCOC(=O)c1ccc(NP(C)(=O)Oc2ccc(OC)cc2)cc1 (configuration not stated) | inactive: -8.56%
O=[N+]([O-])c1cc([N+](=O)[O-])c(O)c([N+](=O)[O-])c1.c1ccc(Oc2ccncc2)cc1 | inactive: -1.19%
CCOP(C)(=S)SCC(=O)NC(C)C(=O)O (configuration not stated) | inactive: 18.7%
CP(=O)(Nc1ccccn1)Oc1ccc(Cl)cc1 (configuration not stated) | inactive: 4.38%
Cc1ccc(Nc2c([N+](=O)[O-])cc([N+](=O)[O-])cc2[N+](=O)[O-])cc1 | inactive: -0.254%
Cc1cccc(C)c1OP(C)(=O)Nc1ccc(SC(F)(F)F)cc1 (configuration not stated) | inactive: -3.09%
CP(=O)(Nc1ccc(SC(F)(F)F)cc1)Oc1ccc(Cl)cc1 (configuration not stated) | inactive: -8.69%
CP(=O)(Oc1ccccc1)OC(c1ccccc1)C(F)(F)F (configuration not stated) | inactive: -3.29%
CP(=O)(NC(=O)Nc1ccccc1)Oc1ccccc1 (configuration not stated) | inactive: 2.79%
CCc1ccc(OP(C)(=O)N2CCN(c3ccc([N+](=O)[O-])cc3)CC2)cc1 (configuration not stated) | inactive: -2.25%
CCN(CC)CCCOC(=O)C(O)(c1ccccc1)c1ccccc1 | inactive: -2.34%
COc1ccccc1OP(C)(=O)Nc1ccc(C)cc1 (configuration not stated) | inactive: -5.41%
CCOC(=O)c1ccc(NP(C)(=O)Oc2ccccc2)cc1 (configuration not stated) | inactive: -17.8%
Cc1cc(C)cc(OP(C)(N)=O)c1 (configuration not stated) | inactive: -0.51%
COc1ccccc1OP(C)(=O)Nc1cc(Cl)ccc1C (configuration not stated) | inactive: -0.414%
COc1ccc(OP(C)(=O)Nc2cccc(F)c2)cc1 (configuration not stated) | inactive: 3.33%
O=[N+]([O-])c1cc([N+](=O)[O-])c(Nc2cccnc2)c([N+](=O)[O-])c1 | inactive: -4.58%
O=[N+]([O-])c1ccc2c(c1)C=Nc1ccccc1O2 | inactive: -0.973%

Compound | inhibition
CC(C)(C)c1ccc(OP(C)(=O)Nc2ccc(SC(F)(F)F)cc2)cc1 (configuration not stated) | inactive: -0.952%
Cc1cccc(C)c1OP(C)(N)=O (configuration not stated) | inactive: -2.69%
CP(=O)(Nc1ccc(Cl)cc1Cl)Oc1ccccc1 (configuration not stated) | inactive: -11.9%
CCCCCCCCCCCCCCCC1C[N+](C)(C)CCOP(C)(=O)O1 (configuration not stated) | inactive: 2.59%
CP(=O)(OCCOc1ccccc1)OCCOc1ccccc1 | inactive: 1.4%
O=C1C(O)=C([N+](=O)[O-])C(=O)C(O)=C1[N+](=O)[O-] | inactive: 7.92%
Cc1cc(C)cc(OP(C)(=O)Nc2cccc(C(F)(F)F)c2)c1 (configuration not stated) | inactive: -0.199%
COc1ccccc1OP(C)(=O)Nc1ccc(C)c(C)c1 (configuration not stated) | inactive: -16.5%
COc1ccc(OP(C)(=O)Nc2ccccc2Br)cc1 (configuration not stated) | inactive: -1.32%
Cc1c(NP(C)(=O)Oc2ccc(C(C)C)cc2)c(=O)n(-c2ccccc2)n1C (configuration not stated) | inactive: -2.51%
O=[N+]([O-])c1cc([N+](=O)[O-])c(Nc2ccccn2)c([N+](=O)[O-])c1 | inactive: -5.3%
CP(=O)(Nc1ccccn1)Oc1ccccc1 (configuration not stated) | inactive: 3.04%
COc1ccccc1OP(C)(=O)Nc1ccc(C)cc1C (configuration not stated) | inactive: -5.57%
CCc1ccc(OP(C)(=O)O)cc1 | inactive: -9.93%
COc1ccccc1OP(C)(=O)Nc1ccc(Br)cc1 (configuration not stated) | inactive: -4.03%
COc1ccc(OP(C)(=O)Nc2ccccn2)cc1 (configuration not stated) | inactive: -4.79%
CN(C)CCOC(=O)C(O)(c1ccccc1)C1CCCC1 (configuration not stated) | inactive: 0.718%
COc1ccccc1OP(C)(=O)Nc1ccccc1Br (configuration not stated) | inactive: -5.65%
CC(C)(C)c1ccc(OP(C)(=O)O)cc1 | inactive: 7.94%
